We go through 1 molecule from US12527776B2, “Treatment of ciliopathies using inhibitors of glucosylceramide synthase (GCS)” (GENZYME CORPORATION, priority 2019, dated 2026).

SMILES strings stand for the structures.

In the experiment the test system is plasma GL-1, GL-3, and GM3 concentrations. The experiment in a line: Phase 1 Study 2: pharmacodynamic endpoints (plasma GL-1, GL-3, GM3). The settings on record: Day 15, plasma. The experiment is classed as in vivo, human. How it is done:
Study 2 was a single-center, double-blind, randomized, placebo-controlled, sequential ascending repeated-dose study of the safety, tolerability, PK, and pharmacodynamics of Compound 2 in healthy adult male and female volunteers.
The study enrolled and randomized 36 healthy adults (19 men and 17 women) (n=9 each to group). The subjects were randomized to receive once-daily doses of Compound 2 at 5, 10, or 20 mg (provided as 5-mg capsules of the L-malic salt form) or placebo for 14 days after at least a 10-hour fast.
Blood was sampled for plasma concentrations of Compound 2 as follows: Day 1 at 0, 0.5, 1, 2, 3, 4, 5, 6, 8, 10, 12, and 16 hours post-dose; On Days 2-5, 8, 11, and 13, at 0 h; On Day 14, at 0.5, 1, 2, 3, 4, 5, 6, 8, 10, 12 hours post-dose; On Days 15-17, at 24, 48, and 72 hours, respectively, after the Day 14 dose. Urine samples were collected for analysis of Compound 2 concentrations on Day 1 (0 hour post-dose) and continuously on Day 14 from 0-24 hours post-dose. Pharmacodynamic endpoints (plasma GL-1, GL-3, and GM3 concentrations) were assessed on Days 1-5, 8, 11, 13, and 14, at 0 hours […]; and on Day 15, at 24 hours after the Day 14 dose.

As for `CC(C)(NC(=O)O[C@@H]1CN2CCC1CC2)c1csc(-c2ccc(F)cc2)n1` [Compound 2, (S)-quinuclidin-3-yl 2-(2-(4-fluorophenyl)thiazol-4-yl)propan-2-ylcarbamate], for the setting “5 mg vs placebo”, the “GL-1 treatment ratio, point estimate” value is 0.39; the “GL-3 treatment ratio, point estimate” value is given as 0.61; the “GM3 treatment ratio, point estimate” value is on record as 0.56. In addition, for the setting “10 mg vs placebo”, the “GL-1 treatment ratio, point estimate” value was 0.32; the “GL-3 treatment ratio, point estimate” value is given as 0.69; the “GM3 treatment ratio, point estimate” value was 0.49. Further, for the setting “20 mg vs placebo”, the “GL-1 treatment ratio, point estimate” value is on record as 0.23; the “GL-3 treatment ratio, point estimate” value was 0.67; the “GM3 treatment ratio, point estimate” value is 0.40.
